Earlier results in US20190106747A1, “DRUGS, PHARMACOGENOMICS AND BIOMARKERS FOR ACIVE LONGEVITY” (Indiana University Research and Technology Corporation, priority 2016, published 2019).

Test system: MME
Settings: Table 5 biomarkers in males; longevity direction of change D; cited from earlier work

Question: For `CCOC(=O)[C@H](C)C[C@@H](Cc1ccc(-c2ccccc2)cc1)NC(=O)CCC(=O)O` [sacubitril], which “MME modulated by drug in the same direction as longevity” value is on record?
Answer: sacubitril
